According to ChEMBL document CHEMBL1131246, “Design, synthesis, and biological evaluation of a second generation of pyrazolo[4,3-e]-1,2,4-triazolo[1,5-c]pyrimidines as potent and selective A2A adenosine receptor antagonists” (J Med Chem, 1998):

Target: Adenosine receptor A2a (Homo sapiens, UniProt P29274)
Assay: Inhibition of 1 uM NECA-stimulated cyclic AMP levels in human platelets
Assay type: functional

- IC50: 18 nM
Structure (SMILES): Nc1nc2c(cnn2CCCc2ccccc2)c2nc(-c3ccco3)nn12 [SCH-63390]
